This test has as its target Aβ(25-35) (Homo sapiens, UniProt P05067). Kind of test: Screening assay for inhibition of Aβ(25-35) aggregation (Thioflavin-T fluorescence). The test is classed as biochemical. As to conditions: read-out: IC50 for inhibiting aggregation of Aβ25-35; molecule at purity above 90%; ThT fluorescence, 25° C., 0-120 minutes. As for the experimental part: Monomeric Aβ(25-35) purchased from Bachem Pharma, was dissolved in distilled sterile water at 4° C., then sonitcated for about 1 minute. The peptide stock solution was then aliquoted and stored at −20° C. All steps were carried out at 4° C. to prevent Aβ(25-35) polymerization.
Fractions of polyphenols were all standardized to 10 μg/mL, before being assessed and stored at −20° C. Measurement of inhibition was performed by following the kinetic of Aβ(25-35) polymerization in a reaction mixture containing 70 μL phosphate buffer, 10 μL Thioflavin-T (100 μM stock solution), 10 μL MeOH (10 mM final concentration) pH 7.2 and 10 μL of Aβ(25-35) (100 μM final concentration) adapting known in the art procedures. LeVine, H., 3rd (1993). “Thioflavine T interaction with synthetic Alzheimer's disease beta-amyloid peptides: detection of amyloid aggregation in solution.” Protein Sci. 2(3): 404-10. […]
To study the inhibitory activity of the fractions, the extracts were diluted to the final concentration in MeOH and 10 μL was added to the mixture at 4° C. Fluorescence spectroscopy was recorded with the excitation at 450 nm and emission at 490 nm. The polymerization kinetics was monitored at 25° C. between 0 and 120 minutes. The IC50 was calculated by using a least-square fitting technique to match the experimental data with a sigmoidal curve. […]

Each structure is given as a SMILES string.

As usually defined, the IC50 is the concentration that inhibits the measured activity by half.

As for `O=C(OC1OC2COC(=O)c3cc(O)c(O)c(O)c3-c3c(cc(O)c(O)c3O)C(=O)OC2C(OC(=O)c2cc(O)c(O)c(O)c2)C1O)c1cc(O)c(O)c(O)c1` (stereo not shown), the IC50 is 9.3 µM.

Source of the values: patent publication US9980980B2, “Compounds, compositions and methods for protecting brain health in neurodegenerative disorders” (Amazentis SA, priority 2009, dated 2018).
